This passage reports CLint scaled results from publication PMC3541548 (Bioorganic & medicinal chemistry letters, 2012).

The data set in a line: in vitro. The following applies: human, microsomes.

For orientation: CLint scaled means the capacity of the preparation to metabolise the compound, expressed as a volume cleared per time. Higher therefore signals rapid turnover. Molecule `Cc1ccc(S(=O)(=O)N2CCC(C(=O)NC3CCCCCC3)CC2)c(C)c1` [Compound 2] showed an intrinsic clearance (CLint scaled) at 1.5 h of 220 mL/min/kg.
